US11371013B2, “Culture medium composition and method of culturing cell or tissue using thereof” (Nissan Chemical Industries, Ltd., priority 2012, dated 2022)

Tested on: A431 cells
Assay: Effect of Gefitinib, Elrotinib on proliferation of A431 cells stimulated with human HB-EGF
Assay type: cell-based
Conditions: low adhesion plate
Experimental: Each plate was cultured by being stood still in a CO2 incubator (37° C., 5% CO2). […] To the culture medium on days 4, 6 and 8 was added an ATP reagent (150 μL) (CellTiter-Glo (registered trade mark) Luminescent Cell Viability Assay, manufactured by Promega) to give a suspension, which was stood for about 10 min at room temperature, and the luminescence intensity (RLU value) was measured by FlexStation3 (manufactured by Molecular Devices), and the number of viable cells was measured by subtracting the luminescence value of the medium alone.

SMILES: COc1cc2ncnc(Nc3ccc(F)c(Cl)c3)c2cc1OCCCN1CCOCC1 [Gefitinib]
- % Control value of the RLU value (ATP measurement, luminescence intensity) (drug 0.1 μM, day 4, 0.015% (w/v) deacylated gellan gum medium): 83%
- % Control value of the RLU value (ATP measurement, luminescence intensity) (drug 0.1 μM, day 8, 0.015% (w/v) deacylated gellan gum medium): 68%
- % Control value of the RLU value (ATP measurement, luminescence intensity) (drug 0.3 μM, day 4, 0.015% (w/v) deacylated gellan gum medium): 82%
- % Control value of the RLU value (ATP measurement, luminescence intensity) (drug 0.3 μM, day 8, 0.015% (w/v) deacylated gellan gum medium): 45%
- % Control value of the RLU value (ATP measurement, luminescence intensity) (drug 1 μM, day 4, 0.015% (w/v) deacylated gellan gum medium): 10%
- % Control value of the RLU value (ATP measurement, luminescence intensity) (drug 1 μM, day 8, 0.015% (w/v) deacylated gellan gum medium): 2%
- % Control value of the RLU value (ATP measurement, luminescence intensity) (drug 3 μM, day 4, 0.015% (w/v) deacylated gellan gum medium): 3%
- % Control value of the RLU value (ATP measurement, luminescence intensity) (drug 3 μM, day 8, 0.015% (w/v) deacylated gellan gum medium): 0%
